# Reference: US7833513B2, “Treatment of Alzheimer's Disease” (Rhode Island Hospital, priority 2004, dated 2010)
# Tests used:
# Format in all cases: in vivo, Long Evans rat
# [1] = ic-STZ rat pup model: blood glucose, body and brain weight, pancreas and brain histopathology; settings: preliminary studies
# brain gene expression = experiment: ic-STZ ± PPAR agonist: real time quantitative RT-PCR of temporal lobe, hypothalamus, cerebellum; settings: cerebellar cortex
# [2] = test system: PPAR-α, PPAR-δ, PPAR-γ mRNA; experiment: PPAR gene expression levels in the brain (real time quantitative RT-PCR); settings: ic-STZ treated brain, mean ±S.E.M.
# [3] = test system: phospho-GSK-3β, GSK-3β, phospho-Tau, Tau; experiment: ic-STZ ± PPAR agonist: Western blot analysis of GSK-3β and Tau; settings: hypothalamus
# [4] = test system: GFAP, GSK-3β, phospho-GSK-3β, ubiquitin, tau, phospho-tau, β-actin; experiment: ic-STZ model: Western blot analysis of temporal lobe tissue; settings: 40 mg/kg ic-STZ, Mean±S.E.M.
# [5] = test system: GFAP, HNE, 8-OHdG, ChAT immunoreactivity; experiment: ic-STZ ± PPAR agonist: immunohistochemical staining of brain; settings: temporal cortex
# [6] = test system: ic-STZ-induced neurodegeneration; experiment: ic-STZ ± PPAR agonist: brain histopathology (H&E); settings: 4 weeks after ic-STZ ± single IP PPAR agonist
# [7] = test system: temporal lobe gene expression; experiment: ic-STZ model: real time quantitative RT-PCR of brain mRNA
# learning and memory = experiment: Morris Water Maze learning and memory test; settings: Trial Day 4 / final day of testing
# [8] = temporal lobe, day 14, normalized to 18S
compound,measurement,setting,value
CN(N=O)C(=O)NC1C(O)OC(CO)C(O)C1O (stereo not drawn) [STZ],STZ-mediated neurodegeneration in dose finding,[1]; doses from 5 to 70 mg/kg ic,neurodegeneration at all doses tested
same,dose giving consistent neurodegeneration results,[1]; ic,at least 25 mg/kg
same,APP mRNA relative to control,brain gene expression,increased
same,Tau mRNA relative to control,brain gene expression,significantly reduced
same,PPAR-α mRNA/18S ratio,[2],0.036 ± 0.0021 ×10^−3
same,PPAR-γ mRNA/18S ratio,[2],0.182 ± 0.017 ×10^−3
same,PPAR-δ mRNA/18S ratio,[2],0.258 ± 0.034 ×10^−3
same,pTau/Tau ratio relative to control,[3],significantly higher
same,phospho-Tau level relative to control,[3],significantly higher
same,p-GSK-3β/GSK-3β ratio,[4],0.0204 ± 0.0022
same,8-OHdG immunoreactivity,[5],Increased
same,GFAP immunoreactivity,[5],Increased
same,HNE immunoreactivity,[5],Increased
same,preservation of cerebellar cortical architecture (H&E),[6],atrophy with cystic degeneration of the cerebellar cortex
same,preservation of hippocampi and temporal lobes (H&E),[6],degeneration of the hippocampal formation
same,APP mRNA,[7]; day 14,significantly higher
same,IRS-1 mRNA,[7]; day 14,significantly reduced relative to control
same,tau mRNA,[7]; day 14,significantly higher
same,IGF-I mRNA,"[7]; temporal cortex, day 14",similarly abundant
same,IGF-I receptor mRNA,"[7]; temporal cortex, day 14",significantly reduced
same,IGF-II mRNA,"[7]; temporal cortex, day 14",significantly reduced
same,insulin mRNA,"[7]; temporal cortex, day 14",significantly reduced
same,insulin receptor mRNA,"[7]; temporal cortex, day 14",significantly reduced
same,AChE mRNA,[7]; temporal lobe,increased
same,ChAT mRNA,[7]; temporal lobe,significantly reduced
same,AIF-1 (microglia) gene expression,[7]; [8],increased
same,GFAP (astrocytes) gene expression,[7]; [8],increased
same,Hu (neurons) gene expression,[7]; [8],significantly reduced
same,MAG-1 (oligodendroglia) gene expression,[7]; [8],significantly reduced
same,mean latency period to arrive at the hidden platform relative to control,learning and memory,significantly higher
